These are literature values, as cited in patent US9464021B2, “Method of preparation of stereospecific quinone derivatives” (priority 2013, dated 2016).

Sequences of proteins named here, by UniProt entry; tags and fusion partners are left off.
UniProt P35372, whole entry, species assumed: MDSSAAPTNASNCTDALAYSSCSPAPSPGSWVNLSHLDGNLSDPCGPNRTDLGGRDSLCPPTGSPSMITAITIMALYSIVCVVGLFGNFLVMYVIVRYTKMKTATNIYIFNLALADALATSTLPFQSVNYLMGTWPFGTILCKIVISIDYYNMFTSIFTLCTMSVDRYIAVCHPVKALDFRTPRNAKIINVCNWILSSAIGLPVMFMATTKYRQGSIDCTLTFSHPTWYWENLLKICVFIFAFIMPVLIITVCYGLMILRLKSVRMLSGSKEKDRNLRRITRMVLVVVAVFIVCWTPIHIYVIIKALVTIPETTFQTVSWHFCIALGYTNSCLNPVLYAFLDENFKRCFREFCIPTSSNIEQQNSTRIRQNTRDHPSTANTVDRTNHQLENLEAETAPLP

The target of the data set is μ opioid receptor (Homo sapiens, UniProt P35372).

With R-methadone, the “affinity for the μ opioid receptor relative to S-methadone” value is recorded as 20 fold.
